The numbers were not newly measured in publication PMC12389006, “In Vitro and In Vivo Evaluation of Alectinib-Loaded Dendrimer Nanoparticles as a Drug Delivery System for Non-Small Cell Lung Carcinoma” (Pharmaceutics, 2025), which cites them from elsewhere.

The series deals with ALK-positive NSCLC. Particulars: first-line treatment; cited from earlier work.

Molecules are shown by their SMILES.

For `C[C@@H](Oc1cc(-c2cnn(C3CCNCC3)c2)cnc1N)c1c(Cl)ccc(F)c1Cl` [Crizotinib], the “disease progression or mortality, share of treated patients” value is 68%. `CCc1cc2c(cc1N1CCC(N3CCOCC3)CC1)C(C)(C)c1[nH]c3cc(C#N)ccc3c1C2=O.Cl` [Alectinib, 9-ethyl-6,6-dimethyl-8-[4-(morpholine-4-yl)piperidin-1-yl]-11-oxo-6,11-dihydro-5H-benzo[b]carbazole-3-carbonitrile hydrochloride]: the “disease progression or mortality, share of treated patients” value is on record as 41%.
